Experimental data published in PubChem BioAssay.
The entries are a selection whose mix differs from that of the whole data set. Active and inactive are the calls of the source.

Sequences of proteins named here, by UniProt entry; tags and fusion partners are left off. A change or cut given only in a name is not applied to a line headed by its entry.
UniProt P02866, whole entry, looked up: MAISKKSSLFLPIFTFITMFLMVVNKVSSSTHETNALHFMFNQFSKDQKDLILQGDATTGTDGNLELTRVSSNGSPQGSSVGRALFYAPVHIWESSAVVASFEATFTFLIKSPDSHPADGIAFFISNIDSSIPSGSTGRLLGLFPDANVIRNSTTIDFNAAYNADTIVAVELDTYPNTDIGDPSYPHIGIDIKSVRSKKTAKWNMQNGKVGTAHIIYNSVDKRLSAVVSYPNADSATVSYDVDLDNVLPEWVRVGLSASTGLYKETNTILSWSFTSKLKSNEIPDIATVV
UniProt Q05397, whole entry, looked up: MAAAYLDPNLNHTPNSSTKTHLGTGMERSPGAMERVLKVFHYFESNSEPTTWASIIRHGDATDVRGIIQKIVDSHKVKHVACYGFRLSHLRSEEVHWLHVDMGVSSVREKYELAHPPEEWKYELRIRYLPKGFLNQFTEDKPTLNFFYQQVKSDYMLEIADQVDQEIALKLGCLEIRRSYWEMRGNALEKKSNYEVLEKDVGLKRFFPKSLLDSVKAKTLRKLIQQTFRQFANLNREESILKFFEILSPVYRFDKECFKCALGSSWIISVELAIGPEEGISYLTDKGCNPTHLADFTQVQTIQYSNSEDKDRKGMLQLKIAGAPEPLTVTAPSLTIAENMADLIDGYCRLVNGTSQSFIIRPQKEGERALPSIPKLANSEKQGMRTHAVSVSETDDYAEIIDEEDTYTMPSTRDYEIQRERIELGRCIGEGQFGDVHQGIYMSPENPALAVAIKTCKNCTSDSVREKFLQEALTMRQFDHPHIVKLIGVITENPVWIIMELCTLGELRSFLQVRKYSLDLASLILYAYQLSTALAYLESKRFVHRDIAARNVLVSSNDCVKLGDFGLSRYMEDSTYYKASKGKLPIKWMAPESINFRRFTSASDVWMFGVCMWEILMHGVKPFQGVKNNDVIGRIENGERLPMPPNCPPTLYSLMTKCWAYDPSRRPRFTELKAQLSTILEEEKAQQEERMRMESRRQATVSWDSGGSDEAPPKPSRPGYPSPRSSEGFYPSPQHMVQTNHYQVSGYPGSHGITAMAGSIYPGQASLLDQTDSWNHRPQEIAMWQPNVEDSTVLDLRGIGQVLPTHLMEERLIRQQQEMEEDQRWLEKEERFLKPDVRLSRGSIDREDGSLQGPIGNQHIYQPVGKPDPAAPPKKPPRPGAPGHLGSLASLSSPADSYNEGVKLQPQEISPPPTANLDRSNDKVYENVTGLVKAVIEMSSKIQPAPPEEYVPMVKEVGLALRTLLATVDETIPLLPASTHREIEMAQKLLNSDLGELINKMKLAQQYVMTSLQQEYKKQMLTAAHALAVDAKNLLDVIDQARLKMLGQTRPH
UniProt P19883: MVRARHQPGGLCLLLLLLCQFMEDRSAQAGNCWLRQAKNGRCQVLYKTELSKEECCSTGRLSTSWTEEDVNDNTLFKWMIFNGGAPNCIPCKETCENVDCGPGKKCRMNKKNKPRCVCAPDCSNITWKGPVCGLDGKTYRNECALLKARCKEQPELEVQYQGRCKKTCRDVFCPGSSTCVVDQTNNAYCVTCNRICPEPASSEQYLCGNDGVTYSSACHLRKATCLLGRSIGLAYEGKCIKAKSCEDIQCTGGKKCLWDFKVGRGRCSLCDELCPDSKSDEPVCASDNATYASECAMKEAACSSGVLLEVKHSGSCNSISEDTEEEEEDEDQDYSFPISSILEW
UniProt P09038, whole entry, looked up: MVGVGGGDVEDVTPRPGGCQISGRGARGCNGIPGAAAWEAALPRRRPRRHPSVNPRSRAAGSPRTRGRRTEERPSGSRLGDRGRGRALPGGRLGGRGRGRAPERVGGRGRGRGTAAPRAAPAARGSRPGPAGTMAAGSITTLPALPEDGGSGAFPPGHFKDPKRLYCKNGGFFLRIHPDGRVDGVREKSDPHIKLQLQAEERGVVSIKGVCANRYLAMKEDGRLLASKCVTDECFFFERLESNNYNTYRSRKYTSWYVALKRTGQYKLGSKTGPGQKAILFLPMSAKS
UniProt P22629, whole entry, looked up: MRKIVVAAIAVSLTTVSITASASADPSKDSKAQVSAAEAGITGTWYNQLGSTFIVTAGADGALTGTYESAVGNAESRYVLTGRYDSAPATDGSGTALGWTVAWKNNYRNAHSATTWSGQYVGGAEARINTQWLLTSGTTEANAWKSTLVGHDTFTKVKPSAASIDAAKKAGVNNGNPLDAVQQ
UniProt O14656: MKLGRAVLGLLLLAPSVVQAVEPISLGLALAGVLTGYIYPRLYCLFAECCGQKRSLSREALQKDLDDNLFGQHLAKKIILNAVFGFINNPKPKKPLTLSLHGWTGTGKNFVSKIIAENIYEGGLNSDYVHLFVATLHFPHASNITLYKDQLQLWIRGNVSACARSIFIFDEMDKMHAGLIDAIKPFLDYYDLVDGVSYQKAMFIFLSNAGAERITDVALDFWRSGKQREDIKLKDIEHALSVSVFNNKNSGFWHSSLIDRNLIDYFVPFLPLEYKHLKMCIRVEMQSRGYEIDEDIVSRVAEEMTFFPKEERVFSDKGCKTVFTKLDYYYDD

Key:
[1] = compound binding in COS7 lysate, probe aLAP1, primary screen, cell lysate, small-molecule microarray (AID 1124); conditions: probe aLAP1, fluorescence, higher = more signal;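 note: lysate comes from COS7 cells expressing LAP1 and is applied at 0.3 µg/mL; score merges spot fluorescence near 667 nm with signal-to-noise over triplicate slides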
Sam68 (KHDRBS1) = assay: Sam68 small-molecule binders, primary screen, biochemical, small-molecule microarray, 635 nm fluorescence (AID 1125); conditions: small-molecule microarray binding, higher = more signal;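 note: score merges 667 nm channel intensity with signal to noise over triplicate slides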
[2] = test system: Chordin-like protein 2 (CHRDL2); assay: CHRDL2 small-molecule binders, primary screen, biochemical, small-molecule microarray, 635 nm fluorescence (AID 1126); conditions: small-molecule microarray binding, fluorescence 635 nm; higher = more signal;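 note: printed compound slides probed with Chrdl2 protein at 4 µg/mL for 1 h at 4 C; score merges 667 nm emission intensity with signal to noise over three replicate slides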
[3] = target: Concanavalin-A (Canavalia ensiformis) (UniProt P02866); assay: ConA small-molecule binders, primary screen, artefact control for SMM control protein annotation, biochemical, small-molecule microarray, Alexa647 label, 635 nm (AID 1127); conditions: ConA-A647 binding fluorescence, higher = more signal;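 note: z combines 667 nm emission intensity with signal-to-noise across three replicate slides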
[4] = anti-His antibody binders, primary screen, artefact control for SMM control protein annotation, biochemical, small-molecule microarray, 635 nm fluorescence (AID 1128); conditions: anti-His Alexa647 antibody binding, higher = more signal;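 note: score merges feature fluorescence with signal-to-noise for each printed compound spot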
[5] = target: Focal adhesion kinase 1 (Homo sapiens) (UniProt Q05397); assay: small-molecule microarray binders of FAK, primary screen, biochemical, 635/667 nm fluorescence, BSA, DTT (AID 1130); conditions: PTK2 binding, 635 nm fluorescence, higher = more signal;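 note: composite of spot emission at 667 nm and signal to noise over triplicate slides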
[6] = test system: Fibrinogen (Alexa647-labelled); assay: fibrinogen binders on compound microarrays, profiling panel, artefact control for SMM control-protein annotation, biochemical, small-molecule microarray, 635/667 nm fluorescence (AID 1131); conditions: fibrinogen-A647 binding fluorescence, higher = more signal;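 note: z-score merges 667 nm fluorescence with per-spot signal-to-noise over triplicate slides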
[7] = target: Follistatin (Homo sapiens) (UniProt P19883); assay: follistatin binders on small-molecule microarrays, primary screen, biochemical, small-molecule microarray, 635/667 nm fluorescence (AID 1132); conditions: FST binding, 635 nm fluorescence, higher = more signal
[8] = target: Fibroblast growth factor 2 (Homo sapiens) (UniProt P09038); assay: FGF2 binders on small-molecule microarrays, primary screen, biochemical, small-molecule microarray, 635/667 nm fluorescence (AID 1133); conditions: small-molecule microarray binding, FGF2, fluorescence 635/667; higher = more signal
[9] = mitochondrial membrane potential change in A549 cells, profiling panel, cell-based, JC-1 fluorescence, basal, 24 h, 100 nL (AID 1138); conditions: higher = more signal;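 note: A549 lung adenocarcinoma cells under basal conditions with no added stimulus; test concentration not given here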
Lefty1 = Lefty1 binders on small-molecule microarrays, primary screen, biochemical, small-molecule microarray, 635/667 nm fluorescence (AID 1139); conditions: small-molecule microarray binding, fluorescence 635/667; higher = more signal
[10] = test system: wheat germ agglutinin (Triticum aestivum), Alexa647-labelled; assay: wheat germ agglutinin binders on compound microarrays, profiling panel, artefact control for SMM control-protein annotation, biochemical, small-molecule microarray, 635/667 nm fluorescence (AID 1140); conditions: WGA-A647 binding, 635 nm fluorescence, higher = more signal;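 note: score merges 667 nm feature emission with signal to noise over triplicate slides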
[11] = test system: Wnt5a (protein binding on small-molecule microarray); assay: Wnt5a binders on small-molecule microarray, primary screen, biophysical, 635/667 nm fluorescence (AID 1142); conditions: 635 nm fluorescence, higher = more signal;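 note: fluorescence read at 667 nm with signal to noise per printed feature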
[12] = cell viability in Huh7 cells, primary screen, cytotoxicity control for HCV replication inhibitor project, CellTiter-Glo luminescence, basal, 48 h (AID 1143); conditions: Huh7 HCV replicon, higher = more signal, called active from +8 up or from −8 down;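 note: Huh7 hepatoma cells carrying a hepatitis C replication reporter with no stimulus; test concentration not given here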
[13] = CREB reporter modulators under forskolin, primary screen, cell-based, PC12, CRE-LacZ reporter, forskolin-stimulated (AID 1146); conditions: luminescence, 4.5 h, higher = more signal, called active from +8 up or from −8 down;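 note: PC12 cells with 6xCRE LacZ reporter stimulated by forskolin 10 µM; beta-galactosidase reporter signal reflecting CREB driven transcription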
[14] = target: Streptavidin (Streptomyces avidinii) (UniProt P22629); assay: streptavidin binders on small-molecule microarray, primary screen, artefact control for SMM compound annotation, biophysical, 635/667 nm fluorescence (AID 1147); conditions: streptavidin binding, higher = more signal;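 note: signal reflects streptavidin binding to arrayed compounds as a control protein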
[15] = small-molecule binders of probe aInhba, primary screen, biochemical, small-molecule microarray, 635/667 nm fluorescence (AID 1148); conditions: higher = more signal;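 note: score merges 667nm spot fluorescence with signal-to-noise for antibody binding to printed compounds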
Torsin-1A (Homo sapiens) [16] = target: Torsin-1A (Homo sapiens) (UniProt O14656); assay: torsin A binders from cell lysate, primary screen, small-molecule microarray, wild-type, 635/667 nm (AID 1149); conditions: COS7 hTOR1A-WT lysate, 635 nm fluorescence, higher = more signal
Torsin-1A (Homo sapiens) [17] = target: Torsin-1A (Homo sapiens) (UniProt O14656); assay: small-molecule binders of mutant TOR1A in lysate, primary screen, cell lysate, small-molecule microarray, COS7 lysate, 635/667 nm fluorescence (AID 1150); conditions: COS7 hTOR1A mutant lysate, 635 nm fluorescence, higher = more signal;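 note: score pools 667 nm emission and signal to noise measuring lysate protein binding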
[18] = test system: Sonic hedgehog protein (Shh); assay: small-molecule binders of Shh protein, primary screen, biochemical, small-molecule microarray, 635/667 nm fluorescence (AID 1151); conditions: small-molecule microarray binding, 635 nm fluorescence; higher = more signal;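 note: Shh protein binding to compounds spotted on small-molecule microarray slides; score combines spot fluorescence intensity with signal-to-noise across triplicate slides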

SMILES | composite z-score [1] | composite z-score (Sam68 (KHDRBS1)) | composite z-score [2] | composite z-score [3] | composite z-score [4] | composite z-score [5] | composite z-score [6] | composite z-score [7] | composite z-score [8] | z-score [9] | composite z-score (Lefty1) | composite z-score [10] | composite z-score [11] | z-score [12] | z-score [13] | composite z-score [14] | composite z-score [15] | composite z-score (Torsin-1A (Homo sapiens) [16]) | composite z-score (Torsin-1A (Homo sapiens) [17]) | composite z-score [18]
O=P(/N=C1/CC(CCCO)=CC(c2ccc(CN3CCCC3)cc2)N1Cc1sc2ccccc2c1Cl)(Oc1ccccc1)Oc1ccccc1 (stereo not given) | 0.125 | 0.13 | -0.594 | 0.851 | 2.33 | 0.111 | 0.588 | 0.241 | 0.06 | 0.516 | 0.058 | 0.931 | 0.0248 | inactive: -5.93 | inactive: 0.366 | 1.1 | 0.0497 | 0.348 | 0.36 | 0.674
COP(=O)(/N=C1/CC(CCCO)=CC(c2ccc(CN3CCCC3)cc2)N1Cc1cccc(OC(F)(F)F)c1)OC (stereo not given) | 0.997 | 1.05 | 0.622 | 0.883 | 0.8 | 0.469 | 0.629 | 1.29 | 0.461 | 2.96 | 1.11 | 0.95 | 0.272 | inactive: -2.34 | inactive: 0.391 | 0.866 | 0.424 | 1.7 | 0.418 | 1.28
CN1/C(=N\P(=O)(Oc2ccccc2)Oc2ccccc2)CC(CCCO)=CC1c1cccs1 (stereo not given) | 1.29 | 0.54 | -0.239 | 0.629 | 1.22 | 2.5 | 0.583 | 1.28 | 0.342 | -0.681 | 0.529 | 1.41 | 0.322 | inactive: -0.15 | inactive: -0.0216 | 0.778 | 0.0173 | 0.378 | 0.161 | 0.836
CC1C=C(CCCO)C/C(=N/P(=O)(Oc2ccccc2)Oc2ccccc2)N1Cc1cccc(OC(F)(F)F)c1 (stereo not given) | 0.184 | 0.95 | -0.373 | 0.818 | 0.645 | 0.841 | 0.647 | 0.617 | -0.117 | -0.61 | 0.415 | 1.17 | -0.186 | inactive: -1.18 | inactive: 0.0059 | 0.393 | -0.0645 | 1.22 | 1.22 | 0.153
COP(=O)(/N=C1/CC(CCCO)=CC(C2CC2)N1Cc1sc2ccccc2c1Cl)OC (stereo not given) | 0.595 | 1.28 | 0.596 | 1.07 | 2.43 | 0.382 | 0.923 | 1.27 | 0.998 | 1.08 | 1.02 | 1.39 | 0.564 | inactive: -2.38 | inactive: -1.27 | 2.21 | 1.23 | 0.279 | 0.0571 | 0.3
O=P(/N=C1/CC(CCCO)=CC(c2cccs2)N1Cc1cccc(OC(F)(F)F)c1)(Oc1ccccc1)Oc1ccccc1 (stereo not given) | 0.631 | 1.15 | -0.296 | 1.1 | 0.821 | 1.23 | 0.737 | 0.235 | -0.2 | 2.5 | -0.335 | 0.492 | 0.13 | inactive: -1.65 | inactive: -0.174 | 0.99 | 0.144 | -0.122 | 0.734 | 0.0178
COP(=O)(/N=C1/CC(c2ccc(CO)cc2)=CC(C2CC2)N1C)OC (stereo not given) | -0.614 | -0.36 | 0.081 | 1.02 | 0.246 | 0.0419 | 0.939 | 0.81 | 0.349 | 0.112 | 0.275 | 0.878 | 0.125 | inactive: -1.85 | inactive: -0.955 | 1.19 | 0.0219 | -0.0993 | 0.174 | 0.378
O=P(/N=C1/CC(CCCO)=CC(C2CC2)N1Cc1sc2ccccc2c1Cl)(Oc1ccccc1)Oc1ccccc1 (stereo not given) | 0.4 | 1.33 | 0.0175 | 0.696 | 1.54 | 1.2 | 0.906 | 0.322 | -0.138 | 1.8 | 0.191 | 1.02 | 0.0755 | inactive: -2.78 | inactive: -0.258 | 1.71 | 0.0471 | -0.487 | 0.774 | 0.0009
O=P(/N=C1/CC(c2ccc(CO)cc2)=CC(c2cccs2)N1Cc1cccc(OC(F)(F)F)c1)(Oc1ccccc1)Oc1ccccc1 (stereo not given) | 0.473 | 1.31 | -0.528 | 1.24 | 1.28 | 0.661 | 0.91 | 0.838 | -0.565 | 1.61 | -0.364 | 1.11 | -0.0586 | inactive: -4.88 | inactive: -0.359 | 1.98 | -0.0774 | 1.85 | 1.41 | 0.0334
COP(=O)(/N=C1/CC(c2ccc(CO)cc2)=CC(C2CC2)N1Cc1sc2ccccc2c1Cl)OC (stereo not given) | 0.8 | 0.872 | 1.33 | 1.05 | 1.96 | -0.708 | 0.807 | 1.31 | 1.34 | 2.32 | 1.41 | 1.22 | 1.28 | inactive: -5.52 | inactive: -3.16 | 1.86 | 1.1 | 0.914 | 1.25 | 1.22
COP(=O)(/N=C1/CC(CCCO)=CC(c2ccc(CN3CCCC3)cc2)N1C)OC (stereo not given) | -0.441 | 0.292 | -0.149 | -0.536 | 2.28 | 0.395 | -0.594 | 0.248 | -0.262 | 0.259 | -0.269 | 0.28 | 0.264 | inactive: -0.691 | inactive: -0.107 | 0.597 | 0.388 | 0.182 | 0.152 | -0.0571
